The text below walks through data of patent US20150246946A1, “PEPTIDES AND METHODS FOR TREATING CANCER” (AGENCY FOR SCIENCE, TECHNOLOGY AND RESEARCH, priority 2012, published 2015).

Protein sequences, listed by entry. Tags and fused reporters are not part of them. Residues count along the entry.
UniProt Q00987, 7-134: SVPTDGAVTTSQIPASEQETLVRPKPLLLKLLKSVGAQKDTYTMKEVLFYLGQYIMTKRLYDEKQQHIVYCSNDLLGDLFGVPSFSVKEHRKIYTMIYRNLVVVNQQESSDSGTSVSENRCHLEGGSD
UniProt Q00987, 1-125: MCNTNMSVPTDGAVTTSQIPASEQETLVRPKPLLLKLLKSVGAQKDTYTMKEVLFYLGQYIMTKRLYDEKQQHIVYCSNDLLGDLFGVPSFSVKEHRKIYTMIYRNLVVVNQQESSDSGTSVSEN

Test [1] concerns the target T1, interaction of p53 with Mdm2 in living BHK cells (Homo sapiens, UniProt Q00987).
T1 construct: the prey is a fusion of either Mdm2 (7-134) or Mdm4 (1-129) with RFP; host or cells: transgenic BHK cells with lac operator repeats
As to the kind of experiment: F2H co-localization assay p53:Mdm2. Type of test: cell-based. The conditions noted are these: live cell observations, FIG. 7.

For test [2], the target named is T2, Mdm2 (1-125) (Homo sapiens, UniProt Q00987).
T2 construct: Mdm2 (1-125) and Mdm4 (1-125) were ligated into the GST fusion expression vector pGEX-6P-1; GST (N, cleaved yes); made in house; host or cells: E. coli BL21 DE3
Description: competitive fluorescence polarization/anisotropy, apparent Kd against Mdm2. The conditions noted are these: comparison of apparent Kds. Type of test: binding. As to the method: The cells expressing the GST fusion constructs were grown in LB medium at 37° C. to an OD600 of ˜0.6 and induction was started with 1 mM IPTG and carried out overnight at room temperature. Cells were harvested by centrifugation and the cell pellets were re-suspended in 50 mM Tris pH 8.0, 10% sucrose and were then sonicated. The sonicated sample was centrifuged for 60 mins at 17,000 g at 4° C. […] The column was then further washed by 6 volumes of wash buffer. Mdm2 and Mdm4 were then purified from the column by cleavage with Precission (GE Lifesciences) protease. 10 units of precission protease, in one column volume of PBS with 1 mM DTT buffer, were injected onto the column. The cleavage reaction was allowed to proceed overnight at 4° C. […] Protein fractions were analyzed with SDS page gel and concentrated using a Centricon (3.5 kDa MWCO) concentrator, Millipore. […] Protein fractions were analyzed with SDS page gel and concentrated using a Centricon (3.5 kDa MWCO) concentrator from Millipore.
Apparent Kd values were determined for a variety of molecules via competitive fluorescence anisotropy experiments. […] Apparent Kd values were determined by fitting the experimental data to the equations shown below:
[L]st and [L]t denote labelled ligand and total unlabelled ligand input concentrations, respectively. […] Readings were carried out with a Envision Multilabel Reader (PerkinElmer). […]

Turning to `COc1ccc(C2=N[C@@H](c3ccc(Cl)cc3)[C@@H](c3ccc(Cl)cc3)N2C(=O)N2CCNC(=O)C2)c(OC(C)C)c1` [nutlin, reference compound], in test [1], the “time to dissociation of Mdm2 from p53” value was at most 60 min. In addition, the “preference between Mdm2 and Mdm4 in binding” value in test [2] is reported as “preference for Mdm2 over Mdm4”.
